Data as given in patent EP2970434B1 (The Regents of the University of California, dated 2018).
“And” between values parts separate entries of the source, which are not always exact repeats. Equal entries are not always repeated.

Biological target: human plasmin (human) (UniProt P00747)
Experiment: cell-based or functional assay

IC50 (nM), inhibition of plasmin activity (S2251 hydrolysis): 0.48 nM and 0.57 nM
Substance: Aprotinin (bovine pancreatic trypsin inhibitor) (from UniProt P00974 36-93)
